Laboratory results as given in patent US4668672A, “Feed compositions containing pyridylalkylhydrazides” (SmithKline Beckman Corporation, priority 1985, dated 1987).

Tested on: swine ileal or cecal inoculum (filtrate of cannula material)
Assay: In vitro swine procedure (incubation of inoculum from cannulated swine, in vitro fistula procedure)
Design: species or system swine (Yorksire barrow)
Conditions: 166.67 ppm; 5 hours at 37°; blank control = 100%

SMILES: COC(=O)NN=Cc1ccccn1
- LAC (L lactic acid): 99 % of Control Values
